In PubChem BioAssay (NCI):
Only a part is listed here, and it is no random draw. The source holds several records for some structures; these can differ, active in one and inactive in another. Calls of active or inactive are those of the source. Rule as the data show it: active = growth inhibition above about 70%; inactive = the rest.

Tests used:
[1] = NCI Yeast Anticancer Drug Screen. Data for the rad50 strain (AID 155);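 also: 0% = growth of vehicle-only cultures of the same strain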; conditions: S. cerevisiae rad50 strain growth inhibition, active compounds read high
[2] = NCI Yeast Anticancer Drug Screen. Data for the mec2-1 strain (AID 157); conditions: S. cerevisiae mec2-1 strain, active compounds read high
[3] = NCI Yeast Anticancer Drug Screen. Data for the sgs1 mgt1 strain (AID 161);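 also: 0% = growth of cultures given vehicle only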; conditions: S. cerevisiae sgs1 mgt1 strain, active compounds read high
[4] = NCI Yeast Anticancer Drug Screen. Data for the cln2 rad14 strain (AID 165);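 also: 0% = growth equal to vehicle treated cultures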; conditions: S. cerevisiae cln2 rad14 strain, active compounds read high
[5] = NCI Yeast Anticancer Drug Screen. Data for the bub3 strain (AID 167); conditions: S. cerevisiae bub3 mutant strain, active compounds read high
[6] = NCI Yeast Anticancer Drug Screen. Data for the mlh1 rad18 strain (AID 175); conditions: S. cerevisiae mlh1 rad18 strain growth inhibition, active compounds read high
[7] = at 5.0 µM (retest, dose inferred, filed as 0.5)
[8] = at 50.0 µM (retest, dose inferred, filed as 5.0)

Measured: growth inhibition

CC(=O)c1ccc(N2CCC(OC(=O)C(O)(c3ccccc3)c3ccccc3)CC2)cc1
inactive: [1]; at 50.0 µM 40.5% | [2]; at 50.0 µM 43.4% | [3]; at 50.0 µM 45.2% | [4]; at 50.0 µM 46.4% | [5]; at 50.0 µM 33.2% | [6]; at 50.0 µM 48.9%

CCCCP(=O)(Cl)N(CCCl)CCCl (stereo unspecified)
active: [4]; at 50.0 µM 71.4%
inactive: [1]; [7] 6% | [1]; [8] 17% | [1]; at 50.0 µM 8.1% | [2]; [7] -2% | [2]; [8] 1% | [2]; at 50.0 µM 12.8% | [3]; [7] -34% | [3]; [8] 1% | [3]; at 50.0 µM 4.75% | [4]; [7] -1% | [4]; [8] 2% | [5]; [7] -2% | [5]; [8] -3% | [5]; at 50.0 µM -7.2% | [6]; [7] -1% | [6]; [8] 4% | [6]; at 50.0 µM 25.3%

Cc1ccc(N(CCI)CCI)cc1
inactive: [1]; at 50.0 µM 8.2% | [2]; at 50.0 µM -20.9% | [3]; at 50.0 µM 6.75% | [4]; at 50.0 µM 24.1% | [5]; at 50.0 µM 5.85% | [6]; at 50.0 µM 27.6%

Cc1[nH]c(=S)[nH]c(=O)c1CN(CCCl)CCCl
inactive: [1]; [7] -1% | [1]; [8] -2% | [1]; at 50.0 µM 13% | [2]; [7] -1% | [2]; [8] -3% | [2]; at 50.0 µM -6.5% | [3]; [7] -6% | [3]; [8] -4% | [3]; at 50.0 µM 21.3% | [4]; [7] -4% | [4]; [8] 2% | [4]; at 50.0 µM -49.5% | [5]; [7] -1% | [5]; [8] -4% | [5]; at 50.0 µM 43.5% | [6]; [7] 0% | [6]; [8] -4% | [6]; at 50.0 µM 3.5%

CC1=CC(=O)C(N(CCCl)CCCl)=CC1=O
active: [1]; [7] 91% | [3]; [8] 71% | [6]; [7] 89% | [6]; at 50.0 µM 84.5%
inactive: [1]; [8] 56% | [1]; at 50.0 µM 40.1% | [2]; [7] 64% | [2]; [8] 29% | [2]; at 50.0 µM 65.2% | [3]; [7] 69% | [3]; at 50.0 µM 58.9% | [4]; [7] 63% | [4]; [8] 62% | [4]; at 50.0 µM 61.6% | [5]; [7] 43% | [5]; [8] 41% | [5]; at 50.0 µM 6.1% | [6]; [8] 44%

ClCCN(CCCl)c1ccc(Cl)cc1
inactive: [1]; at 50.0 µM 2.6% | [2]; at 50.0 µM -12.4% | [3]; at 50.0 µM -0.15% | [4]; at 50.0 µM 2.2% | [5]; at 50.0 µM 5.25% | [6]; at 50.0 µM 10.8%

COc1ccc(C[N+](C)(CCCl)CCCl)c([N+](=O)[O-])c1
active: [1]; at 50.0 µM 73.5% | [6]; [8] 81%
inactive: [1]; at 1.2 µM 20% | [1]; at 3.7 µM 25% | [1]; [7] -22% | [1]; at 11.0 µM 40% | [1]; at 33.0 µM 58% | [1]; [8] 64% | [1]; at 100.0 µM 65% | [2]; at 1.2 µM 7% | [2]; at 3.7 µM 10% | [2]; [7] -22% | [2]; at 11.0 µM 18% | [2]; at 33.0 µM 22% | [2]; [8] 19% | [2]; at 50.0 µM 42.5% | [2]; at 100.0 µM 26% | [3]; [7] -27% | [3]; [8] 8% | [3]; at 50.0 µM 42.9% | [4]; [7] 2% | [4]; [8] 32% | [4]; at 50.0 µM 65% | [5]; at 1.2 µM -2% | [5]; at 3.7 µM 3% | [5]; [7] -32% | [5]; at 11.0 µM 8% | [5]; at 33.0 µM 6% | [5]; [8] -18% | [5]; at 50.0 µM -9% | [5]; at 100.0 µM 3% | [6]; [7] 2% | [6]; at 50.0 µM 67.9%

Cc1ccc(S(=O)(=O)CN(CCBr)CCBr)cc1
active: [1]; at 50.0 µM 81% | [2]; at 50.0 µM 76.2% | [3]; at 50.0 µM 88.8% | [4]; at 50.0 µM 82.7% | [5]; at 50.0 µM 86.2% | [6]; at 50.0 µM 92%
